Literature values in US9061077B2 (Emory University, priority 2008, dated 2015).
Like-named read-outs stand apart in the source and are kept apart here.

Legend:
[1] = literature; cited from earlier work
[2] = mice (n=5), cited from earlier work

With `O=C([O-])CN=C([O-])CN=C([O-])CN=C([O-])C[S-].[O-2].[Tc+4]` [^99mTc-MAG3, technetium-99m mercaptoacetyltriglycine] as the compound, how does the “Clearance as percent of that of 131I-OIH” value [1] read?
Its value is 50-60%.

What about the “Urine (99mTc/131I ratio), injected dose in urine as percentage of 131I-OIH” value ([2]; 10 min, published data) of the same compound?
Its value is 107 ± 0.3^ %.

And the “Urine (99mTc/131I ratio), injected dose in urine as percentage of 131I-OIH” value ([2]; row headed 60 min, footnote says 120 mins)?
Its value is 103 ± 0.5^d %.
